# Laboratory results published in PubChem BioAssay AID2097 (Broad Institute, 2009).
# The chains behind the UniProt entries cited, without tags or fusion partners.
# UniProt P49841, whole entry: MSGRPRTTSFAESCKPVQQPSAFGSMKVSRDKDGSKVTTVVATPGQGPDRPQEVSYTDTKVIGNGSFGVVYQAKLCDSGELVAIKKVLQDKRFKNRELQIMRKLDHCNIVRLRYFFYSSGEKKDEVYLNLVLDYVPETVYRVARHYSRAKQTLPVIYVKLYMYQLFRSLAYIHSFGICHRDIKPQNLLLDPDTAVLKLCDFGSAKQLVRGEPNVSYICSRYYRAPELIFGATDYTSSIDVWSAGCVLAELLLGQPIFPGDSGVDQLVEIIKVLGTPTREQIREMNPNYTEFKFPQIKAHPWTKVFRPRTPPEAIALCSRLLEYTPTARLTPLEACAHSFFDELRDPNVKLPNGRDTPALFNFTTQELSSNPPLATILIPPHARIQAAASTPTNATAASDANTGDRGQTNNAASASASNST
# The list shows a part of the results, in another mix than the full data. Some results for these compounds are left out of this collection, so the calls shown say nothing about other tests. Calls of active or inactive are those of the source.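 The calls were made as follows: active = more than half of replicate wells score below -50%, meaning over 50% inhibition versus plate controls; inconclusive = some replicates but at most half score below -50%; inactive = no replicate scores below -50%.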
# Biological target: Glycogen synthase kinase-3 beta (Homo sapiens) (UniProt P49841)
# Assay: human GSK3beta kinase inhibitors, primary screen, biochemical, cell-free homogeneous, HTS (AID 2097);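 also: 0% = median DMSO wells and -100% = median GW8510 positive control wells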
# Conditions: GST-GSK3beta kinase, ADP-Glo luminescence, 60 min; at 10 µM; hits give low values
row,SMILES,activity score (negative = inhibition)
1,O=C(OC1CN2CCC1CC2)C(CO)(c1ccccc1)c1ccccc1 (centres undefined),inactive: -0.445%
2,CN(C)c1cccc(C(=O)NCC2(N(C)C)CCCCC2)c1,inactive: -0.512%
3,CC(C)Oc1ccc(C(=O)NCC2(N(C)C)CCCCC2)cc1,inactive: -2.56%
4,COc1ccc(Br)c(C(=O)NCC2(N3CCCCC3)CCCCC2)c1,inactive: -0.968%
5,COc1cc(C(=O)NCC2(N(C)C)CCCCC2)c([N+](=O)[O-])cc1OC,inactive: 1.5%
6,CN(C)C1(CNC(=O)c2ccc(Br)cc2)CCCCC1,inactive: 2.31%
7,O=C(NCC1(N2CCCCC2)CCCCC1)c1cccc(Cl)c1,inactive: 3.73%
8,COc1ccc(Cl)cc1C(=O)NCC1(N(C)C)CCCCC1,inactive: 4.22%
9,COc1cccc(C(=O)NCC2(N3CCCCC3)CCCCC2)c1,inactive: 1.82%
10,CN(C)c1ccc(C(=O)NCC2(N(C)C)CCCCC2)cc1,inactive: 2.52%
11,CN(C)C1CCCC1OC(=O)C(O)(c1ccccc1)c1ccccc1 (centres undefined),inactive: 1.03%
12,Cc1ccccc1C(=O)NCC1(N2CCCCC2)CCCCC1,inactive: 0.468%
13,O=C(NCC1(N2CCCCC2)CCCCC1)c1cccc(Br)c1,inactive: -0.891%
14,CCN1CCCC(OC(=O)C2(O)c3ccccc3C=Cc3ccccc32)C1 (centres undefined),inactive: 2.19%
15,Cc1cc(C(=O)NCC2(N3CCCCC3)CCCCC2)ccc1[N+](=O)[O-],inactive: -3.04%
16,COc1ccc(C(=O)NCC2(N(C)C)CCCCC2)cc1,inactive: 0.0603%
17,O=C(NCC1(N2CCCCC2)CCCCC1)c1cc(F)c(F)cc1Cl,inactive: 2.11%
18,C=CCN1CCN(CCOC(=O)C(O)(c2ccccc2)c2ccccc2)CC1,inactive: -1.4%
19,CN1[C@@H]2CC[C@H]1CC(OC(=O)C(O)(c1ccccc1)c1ccccc1)C2 (some centres undefined),inactive: -0.686%
20,O=C(NCC1(N2CCCCC2)CCCCC1)c1cc([N+](=O)[O-])ccc1Cl,inactive: 3.31%
21,Cc1ccc(C(=O)NCC2(N3CCCCC3)CCCCC2)cc1,inactive: -3.27%
22,CC(C)N1C(=O)CC2(CCN(CCOC(=O)C(O)(c3ccccc3)c3ccccc3)CC2)C1=O,inactive: 1.05%
23,COc1cc(SC)ccc1C(=O)NCC1(N(C)C)CCCCC1,inactive: -1.99%
24,CCN(CC)CC(C)C(C)OC(=O)C(O)(c1ccccc1)c1ccccc1 (centres undefined),inactive: 0.0095%
